Where two headings read alike, the source gives them in different places.

For data set [1] the following is noted: D2O at 37° C.
Data set [2] concerns A549, HT29, MRC5, and HeLa cells. Conditions: 5 μM, 3 h.

As to “cis-[Pt(NH3)2(phenanthridine)Cl]NO3 [phenanthriplatin]”, in data set [1], the “equilibrium constant for aquation” value is given as “approximately 0.05”. Besides, in data set [1], the “time after which aquation reaction is complete (equilibrium with aqua analogue)” value is 1 h. The “cellular uptake of platinum” value in data set [2] is “taken up by cells more effectively than cisplatin or pyriplatin”. Besides, the Mortality entry runs as follows: (Phase 1, 15 mg/kg IV) “two animals from Group 2 (15 mg/kg) died immediately after dosing”; (Phase 1, other groups (1.5, 0.15, 0.015 mg/kg IV)) “No mortality”; (Phase 2, 5.6 mg/kg IV, three animals dosed) “One animal died within a few minutes after dosing”; (Phase 2, 7.8 mg/kg IV, three animals dosed) “Two animals died within a few minutes after dosing”; (Phase 2, 10.8 mg/kg IV) “one animal died immediately after dosing”; (Phase 2, 15 mg/kg IV) “one animal died from Group 9 (15 mg/kg) immediately after dosing”. Further, for the setting “Phase 2, 4, 2.9, 2.1 and 1.5 mg/kg IV, three animals dosed”, the Mortality entry is on record as “no mortality was observed”. Further, the “change in body weight” value (all animals that survived past the first day) is “no significant change in body weight”. Also, the “maximum tolerated dose (MTD)” value (intravenous, Albino ICR mice) is “approximately 4 mg/kg”.

Values taken from patent US9034862B2, “Compositions and methods for the treatment of cancer” (priority 2011, dated 2015).
